# Target: F-actin and myosin II complexes (rabbit) (UniProt P68135)
# Test: far-Western, overlay or dot blot; 2-fold dilutions of in vitro polymerized F-actin (top 0.2 or 0.4 μM) or pre-assembled F-actin and myosin II complexes (top 0.04 or 0.2 μM) on nitrocellulose, probed with FLAG-tagged DNGR-1 ECD or CTLD (20 μg/mL), detected with HRP anti-FLAG (M2)
substance,measurement,value
"FLAG-tagged recombinant dimeric mouse DC, NK lectin group receptor-1 (mDNGR-1) extracellular domain (ECD) (from UniProt Q8BRU4 57-238) (domain or fragment)",fold improvement of binding over F-actin alone,> 50 fold
